Results on one molecule are retold here after ChEMBL document CHEMBL1132920, “Syntheses of (R)- and (S)-2- and 6-fluoronorepinephrine and (R)- and (S)-2- and 6-fluoroepinephrine: effect of stereochemistry on fluorine-induced adrenergic selectivities” (J Med Chem, 2000).

By UniProt entry, the sequences of proteins in these tests, tags left out.
UniProt P18090, whole entry: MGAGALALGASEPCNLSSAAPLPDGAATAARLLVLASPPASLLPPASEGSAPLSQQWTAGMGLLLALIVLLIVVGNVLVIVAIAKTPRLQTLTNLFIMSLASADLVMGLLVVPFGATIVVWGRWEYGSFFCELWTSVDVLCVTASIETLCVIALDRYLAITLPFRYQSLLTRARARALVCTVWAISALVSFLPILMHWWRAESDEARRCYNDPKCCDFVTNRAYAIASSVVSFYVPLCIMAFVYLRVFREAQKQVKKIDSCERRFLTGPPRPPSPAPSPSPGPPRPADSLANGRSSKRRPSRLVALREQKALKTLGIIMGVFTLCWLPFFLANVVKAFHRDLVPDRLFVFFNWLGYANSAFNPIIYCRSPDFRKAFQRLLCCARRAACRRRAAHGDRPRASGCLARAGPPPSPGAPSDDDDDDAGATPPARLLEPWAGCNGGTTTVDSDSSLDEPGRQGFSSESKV

pKi: −log10 of the molar value.

For this test, the target named is Beta-1 adrenergic receptor (Rattus norvegicus, UniProt P18090). Description: Binding of [3H]dihydroalprenolol to beta-1 adrenergic receptor of rat cerebral cortical membranes. Type of test: cell membranes, Membrane. In outline:
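Competition assay measuring displacement of specific [3H]dihydroalprenolol binding from rat cerebral cortical membranes to give beta-1 adrenergic receptor affinity.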

In general, pKi refers to −log10 of the Ki, conventionally taken in molar units. Read a low pKi as a high Ki. Turning to `NCCc1ccc(O)c(O)c1` [DOPAMINE], the pKi is 5.00.
